Experimental data taken from PubChem BioAssay AID488899 (Broad Institute, 2010).
The list shows a part of the results, in another mix than the full data. Active and inactive are the calls of the source.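 Rule for the calls: active = mean inhibition across replicates of 60% or more, whatever share of single replicates reaches that level; inconclusive = some that reach 60%, reason not given; inactive = mean inhibition across replicates below 60%.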

Assay: inhibitors of MITF-dependent TRPM1 promoter reporter, primary screen, cell-based, SK-MEL-5, single point, luciferase (AID 488899)
Settings: SK-MEL-5 TRPM1 promoter luciferase, 24 h; at 12.5 µM; hits give high values

| SMILES | inhibition |
| --- | --- |
| O=C(NCC1(N2CCCCC2)CCCCC1)c1ccc(F)cc1 | inactive: -0.0175% |
| O=P1(N(CCCl)CCCl)SCCCS1 | inactive: 4.59% |
| CCCCOc1ccc(C(=O)NCC2(N3CCOCC3)CCCCC2)cc1 | inactive: -3.7% |
| COc1ccc(NC2CCN(CCc3ccccc3)CC2)c(OC)c1 | inactive: 3.26% |
| CCOC(=O)N1CCC(Nc2ccc(F)cc2)CC1 | inactive: 1.74% |
| CCOc1ccc(C)cc1CN(CCCl)CCCl | inactive: 11% |
| O=C1CCN(Cc2ccccc2)CC1 | inactive: -2.58% |
| COc1cc(C(=O)NCC2(N(C)C)CCCCC2)ccc1OC(F)F | inactive: -24.4% |
| CCOC(=O)N1CCC(Nc2cccc(C)c2)CC1 | inactive: -6.09% |
| CSc1ccccc1C(=O)NCC1(N2CCCCC2)CCCCC1 | inactive: -1.35% |
| Cc1cccc(NC2(C#N)CCN(Cc3ccccc3)CC2)c1 | inactive: 1.86% |
| O=C(NCC1(N2CCCCC2)CCCCC1)c1ccc(=O)[nH]c1 | inactive: -9.78% |
| O=C(NCC1(N2CCCCC2)CCCCC1)c1cccs1 | inactive: -7.34% |
| COc1ccc(C(=O)NCC2(N3CCCCC3)CCCCC2)cc1 | inactive: -11.8% |
| CC(C)(C)OC(=O)N1CCC(N(C(=O)c2ccccc2)c2ccc(F)cc2)CC1 | inactive: 10% |
| COc1ccc(C(=O)NCC2(N3CCCCC3)CCCCC2)c(OC)c1OC | inactive: 16.7% |
| CCOC(=O)N1CCC(Nc2ccc(OC)cc2)CC1 | inactive: 11.5% |
| O=C(OC1CN2CCC1CC2)C1c2ccccc2Oc2ccccc21 (stereo not drawn) | inactive: 0.855% |
| O=C(NCC1(N2CCCCC2)CCCCC1)c1ccc(Cl)s1 | inactive: -5.16% |
| N#CC1(Nc2ccccc2)CCN(Cc2ccccc2)CC1 | inactive: -3.38% |
| COc1ccc(Cl)cc1C(=O)NCC1(N2CCOCC2)CCCCC1 | inactive: 4.89% |
| O=C(NCC1(N2CCOCC2)CCCCC1)c1cc2ccccc2o1 | inactive: 5.42% |
| O=C(NCC1(N2CCCCC2)CCCCC1)c1ccc(Cl)nc1 | inactive: -10.6% |
| Cc1cc(C)cc(N(C(=O)c2ccccc2)C2CCN(C(=O)OC(C)(C)C)CC2)c1 | inactive: 22.4% |
| COc1cc(OC)c(C(=O)NCC2(N(C)C)CCCCC2)cc1OC | inactive: 5.31% |

| SMILES | inhibition |
| --- | --- |
| O=C(NCC1(N2CCOCC2)CCCCC1)c1cc(F)c(F)cc1Cl | inactive: -0.24% |
| COc1ccc(CN(CCCl)CCCl)cc1Cl | inactive: 8.28% |
| CN(C)c1cccc(C(=O)NCC2(N3CCCCC3)CCCCC2)c1 | inactive: -3.69% |
| CC(C)c1ccc(NC2CCN(C(=O)OC(C)(C)C)CC2)cc1 | inactive: -47.5% |
| CCCOc1ccc(C(=O)NCC2(N(C)C)CCCCC2)cc1OC | inactive: 4.73% |
| O=C(NCC1(N2CCCCC2)CCCCC1)c1cncc(Br)c1 | inactive: -6.07% |
| CN1CCC(Nc2cccc(F)c2)CC1 | inactive: -9.69% |
| O=C(NCC1(N2CCCCC2)CCCCC1)c1cccc([N+](=O)[O-])c1 | inactive: 4.58% |
| CSc1ccc(C(=O)NCC2(N3CCOCC3)CCCCC2)cc1 | inactive: -9.68% |
| CCN1CCC(Nc2ccc(Cl)cc2)CC1 | inactive: -1.41% |
| N#CC1(Nc2ccccc2)CCN(CCc2ccccc2)CC1 | inactive: 1.51% |
| O=C(NCC1(N2CCCCC2)CCCCC1)c1ccc(OC(F)F)cc1 | inactive: -17% |
| CN1CCN(CCOC(=O)C(O)(c2ccccc2)c2ccccc2)CC1 | inactive: -0.816% |
| CC(C)c1ccc(C(=O)NCC2(N3CCOCC3)CCCCC2)cc1 | inactive: -37.7% |
| COc1ccc(NC2CCN(C(=O)OC(C)(C)C)CC2)cc1 | inactive: 8.23% |
| COc1cc(C(=O)NCC2(N3CCCCC3)CCCCC2)ccc1OC(F)F | inactive: -4.92% |
| O=C(NCC1(N2CCOCC2)CCCCC1)c1cc(=O)[nH]c2ccccc12 | inactive: 5.24% |
| O=C(NCC1(N2CCCCC2)CCCCC1)c1cccc(C(F)(F)F)c1 | inactive: -2.44% |
| CC(C)(C)OC(=O)N1CCC(N(C(=O)c2ccccc2)c2ccc(Cl)cc2)CC1 | inactive: -0.319% |
| N#Cc1ccc(C(=O)NCC2(N3CCCCC3)CCCCC2)cc1 | inactive: 1.66% |
| c1ccc(CN2CCC(Nc3ccccc3)CC2)cc1 | inactive: 2.99% |
| Cc1cc(N(CCCl)CCCl)ccc1C=O | inactive: 2.14% |
| CCCN1CCC(Nc2cc(OC)cc(OC)c2)CC1 | inactive: 3.98% |
| CN(C)C1(CNC(=O)c2cccc(C#N)c2)CCCCC1 | inactive: 1.14% |
| COc1ccc(C(=O)NCC2(N3CCOCC3)CCCCC2)cc1OC | inactive: -13.6% |

| SMILES | inhibition |
| --- | --- |
| O=C(NCC1(N2CCOCC2)CCCCC1)c1cc(Br)ccc1Cl | inactive: -2.37% |
| COc1cc(C(=O)NCC2(N3CCOCC3)CCCCC2)cc(OC)c1C | inactive: -7.49% |
| O=C(OC1CN2CCC1CC2)C1c2ccccc2C=Cc2ccccc21 (stereo not drawn) | inactive: 0.619% |
| N/C(=N\O)c1c(N)no[n+]1[O-] | inactive: 7.29% |
| CCOC(=O)N1CCC(Nc2ccc(C)cc2)CC1 | inactive: 4.21% |
| CCCOc1ccc(C(=O)NCC2(N(C)C)CCCCC2)cc1 | inactive: 9.59% |
| CC(C)(C)OC(=O)N1CCC(Nc2ccccc2)CC1 | inactive: -6.69% |
| O=C(O)C1(Nc2ccccc2)CCN(Cc2ccccc2)CC1 | inactive: 5.54% |
| CCOc1ncccc1C(=O)NCC1(N2CCOCC2)CCCCC1 | inactive: 5.52% |
| CN1CCC(Nc2ccc(F)c(Cl)c2)CC1 | inactive: 6.09% |
| CN1CCC(Nc2ccc(Cl)cc2)CC1 | inactive: -13.5% |
| CCC(CO)(C(=O)OC1CN2CCC1CC2)c1ccccc1 (stereo not drawn) | inactive: -1.1% |
| COc1cc(OC)cc(C(=O)NCC2(N3CCOCC3)CCCCC2)c1 | inactive: 0.072% |
| COc1cccc(C(=O)N(c2cc(C)cc(C)c2)C2CCN(C(=O)OC(C)(C)C)CC2)c1 | inactive: -1.17% |
| Cc1ccc(NC2(C#N)CCN(Cc3ccccc3)CC2)cc1 | inactive: -1.51% |
| Cc1ccc(C(=O)NCC2(N3CCCCC3)CCCCC2)o1 | inactive: -0.456% |
| Fc1ccccc1NC1CCN(Cc2ccccc2)CC1 | inactive: -4.42% |
| CC(=O)N(c1ccccc1)C1CCNCC1 | inactive: 2.58% |
| O=C(NCC1(N2CCCCC2)CCCCC1)c1ccco1 | inactive: -7.42% |
| Cn1c(=O)[nH]cc(N(CCCl)CCCl)c1=O | inactive: 13.7% |
| CN(C)c1ccc(C(=O)NCC2(N3CCCCC3)CCCCC2)cc1 | inactive: -11.8% |
| Cc1ccccc1NC1(C#N)CCN(Cc2ccccc2)CC1 | inactive: -11.2% |
| CCN1CCC(Nc2cccc(F)c2)CC1 | inactive: 4.29% |
